This test deals with U-87 MG cells. Kind of test: cells. As to conditions: Homo sapiens, read-out: BCAA IC50 U-87 MG cell line.

For the compound `CCCc1cc(=O)n2nc(NCc3c(F)cc(Cl)cc3F)c(C#N)c2[nH]1` [Compound A], the IC50 was found to be 5.3 µM.

The record behind these values is article PMC9661481 (2022).
